The values that follow come from article PMC5785446 (Alcoholism, clinical and experimental research, 2018).

By UniProt entry, the sequences of proteins in these tests, tags left out. Where a name states a change or a piece, a line headed by the entry shows the natural chain unless it says otherwise.
UniProt P41145: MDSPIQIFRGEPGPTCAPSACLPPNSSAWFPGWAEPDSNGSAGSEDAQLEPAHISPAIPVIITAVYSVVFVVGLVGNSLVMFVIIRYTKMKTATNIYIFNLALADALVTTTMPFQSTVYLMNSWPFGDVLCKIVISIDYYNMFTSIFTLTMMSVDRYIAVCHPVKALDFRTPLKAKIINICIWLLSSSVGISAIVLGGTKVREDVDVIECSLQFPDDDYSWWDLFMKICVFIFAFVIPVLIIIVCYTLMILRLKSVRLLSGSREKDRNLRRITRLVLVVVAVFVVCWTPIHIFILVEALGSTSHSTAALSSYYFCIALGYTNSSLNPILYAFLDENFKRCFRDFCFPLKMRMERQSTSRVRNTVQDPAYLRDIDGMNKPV
UniProt P35372, whole entry: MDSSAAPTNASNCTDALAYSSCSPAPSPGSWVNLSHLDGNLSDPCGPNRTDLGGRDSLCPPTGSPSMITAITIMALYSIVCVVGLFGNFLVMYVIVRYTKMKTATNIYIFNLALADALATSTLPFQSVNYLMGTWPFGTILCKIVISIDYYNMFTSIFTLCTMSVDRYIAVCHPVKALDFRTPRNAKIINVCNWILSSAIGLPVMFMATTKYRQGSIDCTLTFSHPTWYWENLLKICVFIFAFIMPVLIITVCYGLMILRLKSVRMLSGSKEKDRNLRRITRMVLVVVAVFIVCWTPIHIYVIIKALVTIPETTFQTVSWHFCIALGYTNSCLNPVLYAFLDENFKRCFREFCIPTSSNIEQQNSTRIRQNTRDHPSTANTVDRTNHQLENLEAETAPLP

For one test, the target named is human KOP receptor (Homo sapiens, UniProt P41145). The test is described as follows: biochemical.
The target in a further test is human MOP receptor (Homo sapiens, UniProt P35372). The test is described as follows: biochemical.

Take `CC(C)C[C@H](NC(=O)[C@H](CCCCN)NC(=O)[C@H](CCCN=C(N)N)NC(=O)[C@H](C)NC(=O)[C@H](CO)NC(=O)[C@H](CCCCN)NC(=O)[C@H](CCCN=C(N)N)NC(=O)[C@H](C)NC(=O)CNC(=O)[C@@H](NC(=O)[C@H](Cc1ccccc1)NC(=O)CNC(=O)CNC(=O)[C@@H](N)Cc1ccccc1)[C@@H](C)O)C(=O)N[C@@H](C)C(=O)N[C@@H](CC(N)=O)C(=O)N[C@@H](CCC(N)=O)C(=O)O` [N/OFQ]: the EC50 at human KOP receptor and at human MOP receptor was over 10 µM in each case.

As usually defined, the EC50 is the concentration needed to bring the measured effect to its halfway point. Higher therefore signals a less potent agent.
